Results: patent US20250221431A1, “METHOD FOR FEEDING BLACK SOLDIER FLY LARVAE WITH SELENIUM-RICH BACTERIA SOLUTION” (priority 2024, published 2025)

System: black soldier fly larvae
Details: Example 2, chicken feed, 4-day-old larvae, selenium content added 100.00 mg/kg
Protocol: Step 3, 4-day-old black soldier fly larvae were selected to be fed; the selenium-rich bacteria solution was added to chicken feed to enable the chicken feed to have a total selenium content of 100, 200, 300 mg/kg (wet weight), respectively; a moisture content of the chicken feed was controlled to 60%, then the black soldier fly larvae were fed with the chicken feed at a ratio of dry chicken feed to larva being 116 g per 150 larvae (the ratio of dry feed to larva was 0.77) in conditions of 28° C.-30° C. feeding temperature and 60%-70% air humidity level, and feeding was terminated at the end of the fifth instar of the larvae.
The effects of the selenium-rich bacteria solution on breeding of the selenium-rich black soldier flies were determined according to the indicators, i.e. growth performance of the larvae (survival rate, larva weight), bioconversion efficiency, and selenium content in the larva.
After the feeding was terminated, the obtained larvae were screened, washed, wiped dry and weighed. The survival rate was calculated according to the number of live larvae. The larvae were subjected to starvation for 1 day, then dried and weighed. The residual feed was also dried and weighed. Thereby, bioconversion efficiency was calculated according to the following: bioconversion efficiency=dry weight of the larvae/(dry weight of the added feed−dry weight of the residual feed)×100%. […]

For `O=[Se](O)O` [sodium selenite], the Survival rate was 94.77 ± 0.51%.
